Reference: patent US20250388602A1 (Genase Therapeutics B.V., priority 2022, published 2025)

Sequences of proteins named here, by UniProt entry; tags and fusion partners are left off. A change or cut given only in a name is not applied to a line headed by its entry.
UniProt Q02127: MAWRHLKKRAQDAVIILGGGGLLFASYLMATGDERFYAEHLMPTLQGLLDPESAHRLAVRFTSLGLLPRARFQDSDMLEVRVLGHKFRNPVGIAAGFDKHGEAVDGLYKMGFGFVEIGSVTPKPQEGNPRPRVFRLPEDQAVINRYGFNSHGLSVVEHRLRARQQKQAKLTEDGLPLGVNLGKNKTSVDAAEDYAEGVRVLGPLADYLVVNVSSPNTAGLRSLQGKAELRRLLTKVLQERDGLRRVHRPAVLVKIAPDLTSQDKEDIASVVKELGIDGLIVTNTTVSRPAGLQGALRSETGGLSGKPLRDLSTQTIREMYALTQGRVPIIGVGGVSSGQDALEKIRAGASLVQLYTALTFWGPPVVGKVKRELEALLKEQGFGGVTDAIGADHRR

Biological target: recombinant human DHODH (Homo sapiens (Human), UniProt Q02127)
Test: DHODH enzyme assay (Assay A), DCIP absorbance
Type: biochemical
Procedure: Inhibition of human dihydroorotate dehydrogenase (DHODH) by example compounds as described herein was determined using one of two assays as described below.
DHODH enzyme assays were performed with 6 nM recombinant human DHODH (purified essentially as described by Walse et al., Biochemistry, 47, 8929-8936 (2008)). The reaction mixture consisted of 1 mM DL-dihydroorotic acid (#D7003, Sigma-Aldrich), 100 μM 3,4-dimethoxy-5-methyl-p-benzoquinone (#D9150, Sigma-Aldrich), and 100 μM 2,6-dichlorophenolindophenol sodium salt (DCIP) (#D1878, Sigma-Aldrich) in enzyme buffer (50 mM Tris-HCl pH 8.0, 0.1% Triton X-100, 150 mM KCl). A stock solution of 20 mM DCIP was prepared in enzyme buffer and filtered through Whatman paper just before use. Reactions were performed in a total volume of 100 μL, consisting of 1 μL of compound, 49 μL of enzyme and 50 μL of reaction mixture. Loss in absorbance by chromogen DCIP was measured at 595 nm following a 70 minute incubation at 32° C.

**Q.** CN(C)C(=O)c1cccc(-n2ncc3c2COC[C@H]3NC(=O)c2ncn3c2CCCC3)c1Cl [Ex-70, (S)—N-(1-(2-chloro-3-(dimethylcarbamoyl)phenyl)-1,4,5,7-tetrahydropyrano[3,4-c]pyrazol-4-yl)-5,6,7,8-tetrahydroimidazo[1,5-a]pyridine-1-carboxamide] was tested. Which pIC50 did it give?
**A.** 7.00 to 8.00

pIC50: −log10 of the molar value.
